These results are taken from US9828374B2, “Substituted pyrazino[2,2-a]isoquinoline derivatives” (Hoffmann-La Roche Inc., priority 2014, dated 2017).

Sequences of proteins named here, by UniProt entry; tags and fusion partners are left off.
UniProt Q923Y9, whole entry: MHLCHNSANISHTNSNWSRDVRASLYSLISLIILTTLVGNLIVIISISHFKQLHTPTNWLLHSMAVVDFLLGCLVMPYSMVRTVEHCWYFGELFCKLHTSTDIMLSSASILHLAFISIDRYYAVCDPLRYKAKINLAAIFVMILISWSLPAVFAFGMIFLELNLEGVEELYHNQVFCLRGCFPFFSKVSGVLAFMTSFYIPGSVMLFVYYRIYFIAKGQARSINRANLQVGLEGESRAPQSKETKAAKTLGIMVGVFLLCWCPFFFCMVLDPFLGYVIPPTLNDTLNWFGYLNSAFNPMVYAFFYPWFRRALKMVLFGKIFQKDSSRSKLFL
UniProt Q923Y8, whole entry: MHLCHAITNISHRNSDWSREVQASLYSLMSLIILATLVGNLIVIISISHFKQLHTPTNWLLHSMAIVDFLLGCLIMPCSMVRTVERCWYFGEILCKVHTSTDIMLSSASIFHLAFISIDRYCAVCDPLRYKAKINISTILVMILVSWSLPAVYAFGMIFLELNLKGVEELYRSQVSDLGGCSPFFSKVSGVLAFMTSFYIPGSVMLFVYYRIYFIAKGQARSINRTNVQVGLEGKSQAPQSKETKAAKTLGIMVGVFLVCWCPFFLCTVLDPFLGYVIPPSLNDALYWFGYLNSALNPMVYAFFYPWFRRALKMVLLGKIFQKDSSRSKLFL

One test deals with rat TAAR1 (Rattus norvegicus (Rat), UniProt Q923Y9). Briefly: Radioligand binding assay on rat TAAR1. To be noted: rat TAAR1, HEK-293 membranes; second value of the mouse/rat pair. As to the method:
(§1) Construction of TAAR Expression Plasmids and Stably Transfected Cell Lines
(§2) For the construction of expression plasmids the coding sequences of human, rat and mouse TAAR 1 were amplified from genomic DNA essentially as described by Lindemann et al..
(§3) The Expand High Fidelity PCR System (Roche Diagnostics) was used with 1.5 mM Mg^2+ and purified PCR products were cloned into pCR2.1-TOPO cloning vector (Invitrogen) following the instructions of the manufacturer. PCR products were subcloned into the pIRESneo2 vector (BD Clontech, Palo Alto, Calif.), and expression vectors were sequence verified before introduction in cell lines.
(§4) HEK293 cells (ATCC # CRL-1573) were cultured essentially as described by Lindemann et al. (2005). […]
HEK-293 cells stably expressing rat TAAR1 were maintained at 37° C. and 5% CO2 in DMEM high glucose medium, containing fetal calf serum (10%, heat inactivated for 30 min at 56° C.), penicillin/streptomycin (1%), and 375 μg/ml geneticin (Gibco). […] With each new membrane batch the dissociation constant (Kd) was determined via a saturation curve. […] After addition of 45 μl of Microscint 40 (PerkinElmer) the Unifilter-96 plate was sealed and after 1 hr the radioactivity counted using a TopCount Microplate Scintillation Counter (Packard Instrument Company).

For the next test, the target named is mouse TAAR1 (Mus musculus (Mouse), UniProt Q923Y8). Briefly: Radioligand binding assay on mouse TAAR1. The note with it: mouse TAAR1, HEK-293 membranes; first value of the mouse/rat pair. As to the method: as §1, §2, §3, §4
HEK-293 cells stably expressing mouse TAAR1 were maintained at 37° C. and 5% CO2 in DMEM high glucose medium, containing fetal calf serum (10%, heat inactivated for 30 min at 56° C.), penicillin/streptomycin (1%), and 375 μg/ml geneticin (Gibco). […] With each new membrane batch the dissociation constant (Kd) was determined via a saturation curve. […] After addition of 45 μl of Microscint 40 (PerkinElmer) the Unifilter-96 plate was sealed and after 1 hr the radioactivity counted using a TopCount Microplate Scintillation Counter (Packard Instrument Company).

The term Ki denotes the equilibrium dissociation constant of an inhibitor or competing ligand from its target. Read a low Ki as a stronger hold on the target. `CCc1cnc(Nc2ccc3c(c2)CCN2CCNC[C@@H]32)nc1` [Example 25, (11bR)-N-(5-ethylpyrimidin-2-yl)-2,3,4,6,7,11b-hexahydro-1H-pyrazino[2,1-a]isoquinolin-9-amine]: the figures for the Ki on rat TAAR1 and on mouse TAAR1 were 0.0438 µM and 0.0349 µM, respectively.
